Data as given in article PMC7689490, “Designed CXCR4 mimic acts as a soluble chemokine receptor that blocks atherogenic inflammation by agonist-specific targeting” (Nature Communications, 2020).
Values joined by “and” are separate entries in the source; they are usually repeats but may differ in a detail not shown here. Equal entries are not always repeated.

Molecular target: Fluos-msR4M-LS (human), P61073
Experiment: other fluorescence titration; 5 nM Fluos-labeled ectodomain peptide titrated with unlabeled MIF, MIF peptide or CXCL12; 10 mM sodium phosphate, pH 7.4, 1% HFIP; emission at 522 nm; apparent KD, 1/1 binding model; one constant for each of three curves
Details: remark: other sources report otherwise

B1: macrophage migration-inhibitory factor (MIF), recombinant human, P14174 1-115 (natural protein)
chain: MPMFIVNTNVPRASVPDGFLSELTQQLAQATGKPPQYIAVHVVPDQLMAFGGSSEPCALCSLHSIGKIGGAQNRSYSKLLCGLLAERLRISPDRVYINYYDMNAANVGWNNSTFA
modifications: here or on the partner: disulfide bridge from Cys-109 to Cys-186 of the ECL2 chain; C-terminal amide; Fluos label on the molecule (chain and position not stated) | disulfide bridge from Cys-186 to Cys-109 of the ECL1 chain; C-terminal amide
B1 was tested, and the Kd was 6.6 nM and 6.8 nM.
